# In PubChem BioAssay AID1347076 (National Center for Advancing Translational Sciences (NCATS), 2019):
# The entries are a selection whose mix differs from that of the whole data set. Records with an inconclusive call do not appear. Entries that show only a call come without a potency. The source made the active and inactive calls. Calls come from the whole dose curve; as a rule, active = well fitted cell-killing curve with a large enough effect; inconclusive = small, poorly fitted or top-dose-only effect, or effect the other way; inactive = flat fitted curve, though single readings scatter.
# Experiment: qHTS assay for MDR1-selective chemotherapeutics: Primary screen using the drug-selected MDR subline cells KB-V1; note: nearly all actives have a fitted effect of over 60% in size
# Settings: KB-V1 MDR cells viability, CellTiter-Glo, 72 h; series mostly up to 46.1 µM
# Source text: A prime difficulty in effectively treating cancer is the development of cellular resistance to multiple structurally unrelated anticancer drugs, a phenomenon known as multidrug resistance (MDR). […] Numerous strategies to overcome P-gp-mediated MDR have been explored, including the design of drugs that evade recognition and efflux, and development of inhibitors to block efflux and restore drug accumulation. […] An alternative approach is to exploit resistance by identifying drugs that target MDR cells over the non-resistant parental cells from which they were selected. […] The development of MDR1-selective agents represents a new strategy for resolving multidrug resistance, as it remains a long-standing clinical challenge for cancer chemotherapy.
# Our goal is to identify compounds that selectively kill P-gp-expressing MDR cells. We will identify MDR1-selective compounds by comparing toxicity of compounds in the screening library against parental, drug-naive (KB-3-1) adenocarcinoma cells as well as their drug-selected MDR sub-line (KB-V1). The differential toxicity of compounds against these two cell lines will be used to identify MDR1-selective compounds, whose cytotoxicity is potentiated, rather than diminished, by P-gp expression. This assay will be utilized to conduct a quantitative high-throughput screen (qHTS) in collaboration with the NIH Chemical Genomics Center to identify selective agents, and probe hits arising from the screen will be validated using secondary assays and characterized through a well-established follow-up research program. This screen was run against the entire NCGC library collection of about 400,000 compounds.
# NIH Molecular Libraries Probe Production Network [MLPCN]
# NIH Chemical Genomics Center [NCGC]
# PI: Michael Gottesman, National Cancer Institute, NIH
# Briefly, 5 microL of media containing either KB-V1 cells (columns 1-2, 4-48) are dispensed into Greiner white, treated solid-bottom 1536-well assay plates (media-only control is added to column 3). Compounds are then transferred via Kalypsys pin tool equipped with 1536-pin array (10 nL slotted pins, V&P Scientific, San Diego, CA). Following addition of compound, the plates are incubated at 37 degrees C for 72 hours. CellTiter-Glo (2.5 µL/well) is then added, and the plates are read in a ViewLux reader (Perkin-Elmer, clear luminescence filter, 1 second exposure, 1x binning) following a 10 minute incubation. All cells are dispensed in DMEM phenol-red free media containing 10% FBS.
# Library plates were screened starting from the lowest and proceeding to the highest concentration. Vehicle-only plates, with DMSO being pin-transferred to columns 5-48, will be inserted uniformly at the beginning and the end of each library in order to monitor and record any shifts in the background, which can be affected by reagent dispensers or loss in enzyme activity over time. Screening data will be corrected, normalized, and concentration-effect relationships will be derived by using publicly-available NCGC, NCATS curve fitting algorithms (http://ncgc.nih.gov/pub/openhts).
row,Structure (SMILES),Potency
1,Nc1cccc2c([As](=O)(O)O)cccc12,inactive
2,Cc1cccc(OCC(=O)OC2CN3CCC2CC3)c1 (stereo unspecified),inactive
3,O=[As](O)(c1cccc(O)c1)c1cccc(O)c1,inactive
4,O=[As](O)(O)c1cccnc1,inactive
5,CS(=O)(=O)c1ccc(Cl)c(NC(=O)COC(=O)C(O)(c2ccccc2)c2ccccc2)c1,inactive
6,O=C(OC1CN2CCC1CC2)c1ccc(Cl)cc1 (stereo unspecified),inactive
7,O=[N+]([O-])c1ccc2c(c1)nnn2O,inactive
8,CN(C(=O)Cc1ccc(Cl)c(Cl)c1)[C@H]1CC[C@@]2(CCCO2)C[C@@H]1N1CCCC1,inactive
9,CCOP1(=S)c2c(C)nn(CCC#N)c2N=C(c2ccc(F)cc2)N1C (stereo unspecified),inactive
10,CN(C(=O)Cc1ccccc1)[C@@H]1CC[C@]2(CCCO2)C[C@H]1N1CCCC1,inactive
11,Nc1ccccc1[As](=O)(O)c1ccccc1,inactive
12,CS(=O)(=O)c1cc([N+](=O)[O-])c2no[n+]([O-])c2c1,inactive
13,O=P(Nc1nccs1)(Oc1ccccc1)Oc1ccccc1,inactive
14,O=[As](O)(c1cccs1)c1cccs1,inactive
15,O=P1(Nc2ccc(Br)cn2)COc2ccccc2OC1,inactive
16,NS(=O)(=O)c1cccc(NC(=O)COC(=O)C(O)(c2ccccc2)c2ccccc2)c1,inactive
17,Nc1cccc([As](=O)(O)c2ccccc2)c1,inactive
18,O=P1(Nc2ncccn2)COc2ccccc2OC1,inactive

row,Structure (SMILES),Potency
1,Cc1ccc(S(=O)(=O)N(CCCN)CCCc2c(C)nc(N)[nH]c2=O)cc1,inactive
2,O=C(/C=C/c1ccccc1)OC1CN2CCC1CC2 (stereo unspecified),inactive
3,CCCC1OP(=O)(Nc2ccccc2)OCC1CC (stereo unspecified),inactive
4,CN(C)C1(CNC(=O)c2ccc(S(C)(=O)=O)cc2)CCCCC1,inactive
5,Cc1nn(-c2ccccc2)c2c1P(=O)(N1CCOCC1)N(C)C(c1ccccc1)=N2 (stereo unspecified),inactive
6,Cc1ccc(C(=O)OC2CN3CCC2CC3)cc1 (stereo unspecified),inactive
7,COc1cc([N+](=O)[O-])ccc1[N+](=O)[O-],inactive
8,CC1(CBr)Cn2c(nc3ccccc3c2=O)S1 (stereo unspecified),inactive
9,CC(C)/C=N\N=C(\N)N[N+](=O)[O-],inactive
10,COc1ccccc1CNC(=O)COC(=O)C(O)(c1ccccc1)c1ccccc1,inactive
11,O=P1(N(CCCl)CCCl)NCCC(C(F)(F)F)O1 (stereo unspecified),inactive
12,Clc1n[nH]nc1-c1nn[nH][15n]1,inactive
13,CC(C)(C)C(=O)NC(Sc1ncccn1)C(Cl)(Cl)Cl (stereo unspecified),inactive
14,CCOP(=O)(Nc1ccc(C)cn1)OCC,inactive
15,CN(CCCl)Cc1cc(Cl)c(NC2=NCCN2)c(Cl)c1,inactive
16,O=P1(Nc2ccccn2)COc2ccccc2OC1,inactive
17,CCC1=CC2Cc3nc4ccc(Cl)cc4c(N)c3C(C1)C2 (stereo unspecified),inactive
18,CCOP(=O)(NC(=NC(C)c1ccccc1)NC(C)c1ccccc1)OCC (stereo unspecified),inactive
